The text below walks through data of PubChem BioAssay AID463141 (The Scripps Research Institute Molecular Screening Center, 2010).

Sequences of proteins named here, by UniProt entry; tags and fusion partners are left off.
UniProt P42574, whole entry D9A/D28A/D175A: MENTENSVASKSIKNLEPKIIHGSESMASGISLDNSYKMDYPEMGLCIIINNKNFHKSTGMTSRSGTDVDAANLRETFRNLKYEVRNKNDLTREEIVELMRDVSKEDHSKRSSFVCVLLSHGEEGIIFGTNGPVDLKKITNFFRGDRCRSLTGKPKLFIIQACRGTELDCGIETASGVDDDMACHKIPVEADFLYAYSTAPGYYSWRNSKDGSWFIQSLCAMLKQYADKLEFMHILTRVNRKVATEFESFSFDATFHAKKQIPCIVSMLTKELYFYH

This is a selection; strong and weak results do not stand in their true shares. The source made the active and inactive calls.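 Rule for the calls: active = activation above the mean of all tested compounds plus 3 SD (cut at about 21% in these data); inactive = the rest.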

The experiment deals with Caspase-3 (Homo sapiens) (UniProt P42574). As to the kind of experiment: activators of human procaspase-3 D3A mutant, primary screen, biochemical, absorbance, PC-3 D3A mutant, single concentration (AID 463141).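 Note: 0% = DMSO alone and 100% = DMSO wells spiked with extra 5 µM PC-3 D3A.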 Particulars: recombinant procaspase-3 D3A, Ac-DEVD-pNA absorbance 405 nm; at 8.5 µM; stronger effect = higher value.
Turning to `CCC(=O)N(c1ccccc1)C1(COC)CCN(CCc2cccs2)CC1`, the activation is inactive: 4.63%. On to `CCC(=O)N(c1ccccc1)C1(COC)CCN(CCn2nnn(CC)c2=O)CC1`, for which the activation is inactive: 5.59%.
